Source: patent publication US20200071326A1, “TAM KINASE INHIBITORS” (Syros Pharmaceuticals, Inc., priority 2017, published 2020)

Sequences of proteins named here, by UniProt entry; tags and fusion partners are left off. Residues count along the entry.
UniProt P30530, 26-894 limits assumed: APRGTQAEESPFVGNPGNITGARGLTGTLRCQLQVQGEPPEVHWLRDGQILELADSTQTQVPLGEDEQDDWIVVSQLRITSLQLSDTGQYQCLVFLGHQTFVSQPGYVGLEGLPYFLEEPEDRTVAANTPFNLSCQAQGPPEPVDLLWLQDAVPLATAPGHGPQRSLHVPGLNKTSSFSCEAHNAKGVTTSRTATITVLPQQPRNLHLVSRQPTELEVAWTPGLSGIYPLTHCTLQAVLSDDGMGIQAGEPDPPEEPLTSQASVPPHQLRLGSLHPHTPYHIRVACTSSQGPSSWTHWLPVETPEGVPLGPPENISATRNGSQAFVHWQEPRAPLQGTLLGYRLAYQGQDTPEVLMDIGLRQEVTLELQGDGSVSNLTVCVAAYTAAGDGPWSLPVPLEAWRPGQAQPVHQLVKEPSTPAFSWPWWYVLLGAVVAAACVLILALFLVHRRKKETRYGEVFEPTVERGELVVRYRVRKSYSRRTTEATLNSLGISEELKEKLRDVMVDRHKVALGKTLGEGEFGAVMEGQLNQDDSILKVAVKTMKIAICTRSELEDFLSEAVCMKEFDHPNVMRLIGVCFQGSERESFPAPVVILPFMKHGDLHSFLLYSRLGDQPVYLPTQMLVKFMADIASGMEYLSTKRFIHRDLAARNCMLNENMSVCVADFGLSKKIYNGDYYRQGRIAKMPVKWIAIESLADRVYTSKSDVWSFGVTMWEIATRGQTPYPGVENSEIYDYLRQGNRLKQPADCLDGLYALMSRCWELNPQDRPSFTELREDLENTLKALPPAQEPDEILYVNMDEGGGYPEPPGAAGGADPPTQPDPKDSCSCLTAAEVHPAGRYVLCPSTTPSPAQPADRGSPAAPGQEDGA
UniProt Q06418, 41-890 limits assumed: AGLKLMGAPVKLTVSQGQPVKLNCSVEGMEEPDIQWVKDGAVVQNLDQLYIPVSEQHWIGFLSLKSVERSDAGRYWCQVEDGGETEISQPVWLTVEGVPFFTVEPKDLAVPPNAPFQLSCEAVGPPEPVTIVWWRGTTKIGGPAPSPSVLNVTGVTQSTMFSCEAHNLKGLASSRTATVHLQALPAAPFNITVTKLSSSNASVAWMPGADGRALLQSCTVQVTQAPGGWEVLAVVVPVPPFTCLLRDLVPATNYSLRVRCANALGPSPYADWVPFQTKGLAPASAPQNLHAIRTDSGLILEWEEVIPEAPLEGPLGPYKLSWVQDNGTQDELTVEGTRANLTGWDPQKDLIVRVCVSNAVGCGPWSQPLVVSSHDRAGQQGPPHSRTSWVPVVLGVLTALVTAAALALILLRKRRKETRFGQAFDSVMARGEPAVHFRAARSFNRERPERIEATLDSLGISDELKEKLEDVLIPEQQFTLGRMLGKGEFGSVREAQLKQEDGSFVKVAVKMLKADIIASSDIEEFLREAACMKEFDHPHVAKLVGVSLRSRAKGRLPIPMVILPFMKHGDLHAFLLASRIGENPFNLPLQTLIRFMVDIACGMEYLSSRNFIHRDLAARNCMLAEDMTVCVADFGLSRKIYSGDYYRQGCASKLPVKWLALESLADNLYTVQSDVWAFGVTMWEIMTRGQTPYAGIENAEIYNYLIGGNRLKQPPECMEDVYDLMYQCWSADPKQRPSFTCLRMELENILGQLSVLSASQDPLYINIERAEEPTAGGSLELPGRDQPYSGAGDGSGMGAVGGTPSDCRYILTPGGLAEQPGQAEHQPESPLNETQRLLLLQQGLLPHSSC
UniProt Q12866, 21-999 limits assumed: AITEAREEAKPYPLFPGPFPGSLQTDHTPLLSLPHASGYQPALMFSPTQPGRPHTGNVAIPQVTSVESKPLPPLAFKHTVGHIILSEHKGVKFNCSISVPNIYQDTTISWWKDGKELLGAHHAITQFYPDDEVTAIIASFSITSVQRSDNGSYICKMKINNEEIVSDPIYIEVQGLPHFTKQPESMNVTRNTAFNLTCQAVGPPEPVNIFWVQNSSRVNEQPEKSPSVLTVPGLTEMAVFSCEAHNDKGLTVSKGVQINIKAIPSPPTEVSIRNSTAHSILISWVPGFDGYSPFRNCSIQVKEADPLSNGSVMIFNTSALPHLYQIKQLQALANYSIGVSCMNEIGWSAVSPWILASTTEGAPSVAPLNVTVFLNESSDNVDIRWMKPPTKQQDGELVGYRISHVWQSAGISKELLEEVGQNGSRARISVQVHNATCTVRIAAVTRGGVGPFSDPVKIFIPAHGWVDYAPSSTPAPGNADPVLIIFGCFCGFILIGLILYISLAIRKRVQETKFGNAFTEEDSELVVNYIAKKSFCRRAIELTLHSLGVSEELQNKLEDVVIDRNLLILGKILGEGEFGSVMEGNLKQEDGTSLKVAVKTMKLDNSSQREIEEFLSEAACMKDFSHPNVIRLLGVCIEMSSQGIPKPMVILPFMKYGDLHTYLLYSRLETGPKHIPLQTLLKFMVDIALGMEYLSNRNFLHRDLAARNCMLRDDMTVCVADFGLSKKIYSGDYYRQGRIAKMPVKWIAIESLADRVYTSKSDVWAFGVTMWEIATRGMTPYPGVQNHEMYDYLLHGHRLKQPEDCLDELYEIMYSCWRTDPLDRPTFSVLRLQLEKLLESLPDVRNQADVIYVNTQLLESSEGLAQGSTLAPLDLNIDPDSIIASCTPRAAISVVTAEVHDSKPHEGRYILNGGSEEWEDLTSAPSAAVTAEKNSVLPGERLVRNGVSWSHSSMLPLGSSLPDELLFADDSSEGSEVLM
UniProt P36888, 27-993 limits assumed: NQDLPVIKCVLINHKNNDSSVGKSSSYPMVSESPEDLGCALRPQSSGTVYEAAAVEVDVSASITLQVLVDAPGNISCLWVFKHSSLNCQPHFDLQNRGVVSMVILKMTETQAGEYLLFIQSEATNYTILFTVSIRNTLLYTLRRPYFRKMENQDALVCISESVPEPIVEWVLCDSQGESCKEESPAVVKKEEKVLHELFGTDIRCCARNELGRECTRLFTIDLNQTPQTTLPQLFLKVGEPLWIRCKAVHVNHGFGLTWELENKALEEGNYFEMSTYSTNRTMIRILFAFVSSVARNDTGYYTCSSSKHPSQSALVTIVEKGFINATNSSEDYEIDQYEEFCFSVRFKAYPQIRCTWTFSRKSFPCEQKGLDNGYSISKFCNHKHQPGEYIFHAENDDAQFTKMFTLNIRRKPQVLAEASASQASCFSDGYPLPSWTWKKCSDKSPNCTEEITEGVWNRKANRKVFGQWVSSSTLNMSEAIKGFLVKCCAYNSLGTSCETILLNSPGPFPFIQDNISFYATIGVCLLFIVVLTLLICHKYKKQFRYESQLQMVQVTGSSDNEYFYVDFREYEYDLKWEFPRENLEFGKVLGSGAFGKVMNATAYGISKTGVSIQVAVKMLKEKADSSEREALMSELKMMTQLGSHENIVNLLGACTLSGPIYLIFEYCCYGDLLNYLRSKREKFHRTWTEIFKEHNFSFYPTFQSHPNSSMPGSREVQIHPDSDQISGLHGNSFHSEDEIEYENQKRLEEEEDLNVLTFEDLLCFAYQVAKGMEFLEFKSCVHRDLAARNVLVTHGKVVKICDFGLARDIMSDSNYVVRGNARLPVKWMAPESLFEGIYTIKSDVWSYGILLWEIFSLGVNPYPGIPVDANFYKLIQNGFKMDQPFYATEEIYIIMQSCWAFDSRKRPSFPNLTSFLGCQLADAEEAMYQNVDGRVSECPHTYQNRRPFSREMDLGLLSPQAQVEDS

Assays:
[1] = molecular target: AXL (Homo sapiens, UniProt P30530); experiment: IMAP fluorescence polarization kinase assay, AXL; details: read-out: AXL inhibitory constant (Ki), ATP 24.7 μM, enzyme 2.5 nM, 240 minutes
Procedure: (§1) Activities of compounds against each of TYRO3, AXL, and MERTK as well as against FLT3, were determined using an immobilized metal ion affinity-based fluorescence polarization (“IMAP”) assay. A fluorescently-labeled substrate peptide was phosphorylated in the kinase reaction, after which a binding solution containing large trivalent metal-based nanoparticles was added and the phosphorylated substrate binds to these beads. This reduces the rotational speed of the substrate which is then detected using fluorescence polarization as a read-out.
(§2) The substrates used for each enzyme are as follows: AXL: 5F1-KKKKEEIYFFFG-NH2(SEQ ID NO:1); FLT3: 5F1-KKKKEEIYFFF-NH2 (SEQ ID NO:2); MERTK: 5F1-EFPIYDFLPAKKK-NH2 (SEQ ID NO:3); and TYRO3: 5F1-EFPIYDFLPAKKK-NH2 (SEQ ID NO:4).
(§3) This assay was performed in a 384-well, polystyrene microplate in a final volume of 8 μl. […] IMAP binding solution was then dispensed, the plate incubated for 60 minutes at room temperature and the fluorescence polarization measured. Data were analyzed using XLfit.

[2] = molecular target: TYRO3 (Homo sapiens, UniProt Q06418); experiment: IMAP fluorescence polarization kinase assay, TYRO3; details: read-out: TYRO3 inhibitory constant (Ki), ATP 54.0 μM, enzyme 2.5 nM, 60 minutes
Procedure: as §1, §2, §3

[3] = molecular target: MERTK (Homo sapiens, UniProt Q12866); experiment: IMAP fluorescence polarization kinase assay, MERTK; details: read-out: MERTK inhibitory constant (Ki), ATP 2.69 μM, enzyme 1.5 nM, 240 minutes
Procedure: as §1, §2, §3

[4] = molecular target: FLT3 (Homo sapiens, UniProt P36888); experiment: IMAP fluorescence polarization kinase assay, FLT3; details: read-out: FLT3 inhibitory constant (Ki), ATP 2.74 μM, enzyme 2.5 nM, 240 minutes
Procedure: as §1, §2, §3

pKi [1]: 5.00 to 6.00 | pKi [2]: > 7.00 | pKi [3]: > 7.00 | pKi [4]: 6.00 to 7.00
SMILES: CC[C@@H](C)c1cc2c(N[C@H]3CC[C@H](N)CC3)c(C(=O)Nc3ccc(F)cc3)cnc2[nH]1

pKi: −log10 of the molar value.
